This passage reports Ki results from patent US10174037B2, “Dihydropyrazolopyrimidinone compounds as PDE2 inhibitors” (Merck Sharp & Dohme Corp., priority 2015, dated 2019).

By UniProt entry, the sequences of proteins in these tests, tags left out. Chains listed by the source or under a name are the forms on record and can include a tag or linker. Residues count along the entry.
UniProt O00408, other isoform, or with tags, fused parts or gaps: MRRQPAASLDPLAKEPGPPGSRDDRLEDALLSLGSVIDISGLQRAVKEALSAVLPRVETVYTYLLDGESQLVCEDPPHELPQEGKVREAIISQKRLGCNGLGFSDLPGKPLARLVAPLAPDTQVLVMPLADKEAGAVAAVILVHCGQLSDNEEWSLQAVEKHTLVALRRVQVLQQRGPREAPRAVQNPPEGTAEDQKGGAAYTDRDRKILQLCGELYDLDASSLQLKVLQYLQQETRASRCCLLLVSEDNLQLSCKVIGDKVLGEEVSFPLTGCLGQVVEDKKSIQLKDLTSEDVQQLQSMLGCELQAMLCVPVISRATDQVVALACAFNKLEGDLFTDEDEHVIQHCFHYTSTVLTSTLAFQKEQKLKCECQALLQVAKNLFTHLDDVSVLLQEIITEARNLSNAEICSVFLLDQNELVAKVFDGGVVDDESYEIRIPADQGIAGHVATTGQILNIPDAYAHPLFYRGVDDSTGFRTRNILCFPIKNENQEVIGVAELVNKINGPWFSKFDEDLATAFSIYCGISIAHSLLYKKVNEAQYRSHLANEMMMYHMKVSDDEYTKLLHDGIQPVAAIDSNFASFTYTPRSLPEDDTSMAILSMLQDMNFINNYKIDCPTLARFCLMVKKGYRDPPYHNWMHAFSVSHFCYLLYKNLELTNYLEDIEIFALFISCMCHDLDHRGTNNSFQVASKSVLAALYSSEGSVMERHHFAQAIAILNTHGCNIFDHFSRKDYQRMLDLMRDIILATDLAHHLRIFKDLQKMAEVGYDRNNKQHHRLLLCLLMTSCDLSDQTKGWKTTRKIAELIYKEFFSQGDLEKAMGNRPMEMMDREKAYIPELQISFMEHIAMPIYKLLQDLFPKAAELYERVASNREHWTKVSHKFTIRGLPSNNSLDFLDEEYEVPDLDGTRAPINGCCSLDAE
UniProt B3VTJ2, 1-941: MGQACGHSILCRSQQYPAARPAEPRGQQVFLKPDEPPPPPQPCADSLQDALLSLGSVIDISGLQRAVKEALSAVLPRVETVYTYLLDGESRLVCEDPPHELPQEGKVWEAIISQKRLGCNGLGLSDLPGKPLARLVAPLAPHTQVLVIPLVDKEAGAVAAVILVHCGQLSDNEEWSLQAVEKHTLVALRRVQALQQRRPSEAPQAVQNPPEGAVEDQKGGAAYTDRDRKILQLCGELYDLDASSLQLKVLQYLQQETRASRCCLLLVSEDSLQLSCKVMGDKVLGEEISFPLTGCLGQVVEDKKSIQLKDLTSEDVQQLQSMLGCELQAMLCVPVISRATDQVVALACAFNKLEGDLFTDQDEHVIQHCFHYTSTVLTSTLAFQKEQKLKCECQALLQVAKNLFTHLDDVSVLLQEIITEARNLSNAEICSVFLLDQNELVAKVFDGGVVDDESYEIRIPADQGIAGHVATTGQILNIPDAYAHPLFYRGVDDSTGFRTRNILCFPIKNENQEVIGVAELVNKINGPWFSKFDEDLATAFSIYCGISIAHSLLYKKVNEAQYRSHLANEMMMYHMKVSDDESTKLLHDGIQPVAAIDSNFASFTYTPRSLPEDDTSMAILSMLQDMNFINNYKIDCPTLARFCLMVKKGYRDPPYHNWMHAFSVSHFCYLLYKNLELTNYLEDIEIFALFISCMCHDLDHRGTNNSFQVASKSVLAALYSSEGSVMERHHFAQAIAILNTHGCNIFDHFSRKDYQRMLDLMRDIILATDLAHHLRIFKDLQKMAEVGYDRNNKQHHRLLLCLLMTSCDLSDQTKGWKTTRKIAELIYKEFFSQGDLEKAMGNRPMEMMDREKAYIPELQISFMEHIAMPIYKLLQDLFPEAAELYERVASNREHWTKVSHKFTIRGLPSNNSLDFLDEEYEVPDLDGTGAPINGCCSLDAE

Test [1] deals with human PDE2A1 (Homo sapiens (Human), UniProt O00408). As to the kind of experiment: PDE selectivity IMAP FP assay, human PDE2A1. The class given is biochemical. The settings on record: Human PDE2; Lab B. How it is done:
Selectivity for PDE2, as compared to other PDE families, was assessed using the IMAP® technology. Human PDE10A2 enzyme was prepared from cytosolic fractions of transiently transfected HEK cells.
A Labcyte POD 810 (Labcyte, Sunnyvale, Calif.) was used to dispense 200 nL from each well of the titration plate to make eleven copies of the assay plate for each titration, one copy for each PDE enzyme. A solution of each enzyme (dilution from aliquots, sufficient to produce 20% substrate conversion) and a separate solution of FAM-labeled cAMP or FAM-labeled cGMP from Molecular Devices (Sunnyvale, Calif., product # R7506 or cGMP#R7508), at a final concentration of 50 nM were made in the assay buffer (10 mM Tris HCl, pH 7.2, 10 mM MgCl2, 0.05% NaN3 0.01% Tween-20, and 1 mM DTT). Note that the substrate for PDE2 is 50 nM FAM cAMP containing 1000 nM of cGMP. The enzyme and the substrate were then added to the assay plates in two consecutive additions of 10 μL and then shaken to mix. The reaction was allowed to proceed at room temperature for 60 minutes. A binding solution was then made from the kit components, comprised of 80% Solution A, 20% Solution B and binding reagent at a volume of 1/600 the total binding solution. The enzymatic reaction was stopped by addition of 60 μL of the binding solution to each well of the assay plate. The plates were sealed and shaken for 10 seconds. The plates were incubated at room temperature for one hour, then the parallel and perpendicular fluorescence was measured using a Tecan Genios Pro plate reader (Tecan, Switzerland). […] The intrinsic PDE2 inhibitory activity of a compound which may be used in accordance with the present invention may be determined by these assays. […]
The PDE2 Ki is a measure of the ability of the test compound to inhibit the action of the PDE2 enzyme.

In test [2] the target is Rhesus PDE2A3 (Macaca mulatta, UniProt B3VTJ2). Put plainly: PDE2 fluorescence polarization (IMAP FP) assay, rhesus PDE2A3. The settings on record: Lab B. Type of test: biochemical, rhesus macaque. How it is done: A Labcyte Echo 555 (Labcyte, Sunnyvale, Calif.) is used to dispense 200 nL from each well of the titration plate to the 384 well assay plate. Ten microliters of a solution of enzyme (1/2000 final dilution from aliquots; sufficient to produce 20% substrate conversion) was added to the assay plate. Next 10 uL of a separate solution of the substrate FAM-labeled cAMP (50 nM final concentration product # R7506 from Molecular Devices) and the activator cGMP (1 uM final concentration), prepared in the assay buffer (10 mM Tris HCl, pH 7.2, 10 mM MgCl2, 0.05% NaN3 0.01% Tween-20, and 1 mM DTT) was added to the assay plate and shaken to mix. The reaction is allowed to proceed at room temperature for 60 minutes. A binding solution is then made from the kit components, comprised of 80% Solution A, 20% Solution B and binding reagent at a volume of 1/600 the total binding solution. The enzymatic reaction is stopped by addition of 60 μL of the binding solution to each well of the assay plates and the plates are sealed and shaken for 30 seconds. The plate was incubated at room temperature for at least one hour prior to determining the fluorescence polarization (FP). The parallel and perpendicular fluorescence of each well of the plate was measured using a Tecan Genios Pro plate reader (Tecan, Switzerland) or Perkin Elmer EnVision™ plate reader (Waltham, Mass.). Fluorescence polarization (mP) was calculated from the parallel (S) and perpendicular (P) fluorescence of each sample well and the analogous values for the median control well, containing only substrate (So and Po), using the following equation: Polarization (mP)=1000*(S/So−P/Po)/(S/So+P/Po).
Dose-inhibition profiles for each compound were characterized by fitting the mP data to a four-parameter equation given below.
An apparent (KM) for FAM-labeled cAMP of ˜10 uM was used.
In general terms: In fluorescence polarisation assays a small probe gives low polarisation when free and higher when bound to something large.

The structures appear in SMILES notation.

A word on the Ki: it is a dissociation constant, usually derived from enzyme kinetics or from competition with a known ligand. A high value points to lower affinity. In test [1], `CC(c1ccc(OC(F)(F)F)c(F)c1)n1nc(CO)c2c(=O)[nH]c(O)nc21` (single isomer, unassigned) [Example 10] came in with a Ki of 185 nM.

On to `CC(c1ccc(OC(F)(F)F)c(F)c1)n1nc(CO)c2c(=O)[nH]c(O)nc21` (single isomer, unassigned) [Example 11], for which, in test [1], the affinity corresponds to a Ki of 27 nM. Against the preceding compound, the Ki is about 6.9-fold lower.

Regarding `O=c1[nH]c(O)nc2c1c(CO)nn2C(c1ccc(C(F)(F)F)cc1)C1CC1` (single isomer, unassigned) [Example 15, (S) or (R)-1-(Cyclopropyl(4-(trifluoromethyl)phenyl)methyl)-6-hydroxy-3-(hydroxymethyl)-1H-pyrazolo[3,4-d]pyrimidin-4(5H)-one], in test [1], affinity was put at a Ki of 12 nM.

The compound `CC(C)C(c1ccc(OC(F)(F)F)c(F)c1)n1nc(CF)c2c(=O)[nH]c(O)nc21` (single isomer, unassigned) [Example 53] showed a Ki in test [1] of 5.3 nM.

Consider `CC(C)C(c1ccc(OC(F)(F)F)c(F)c1)n1nc(CF)c2c(=O)[nH]c(O)nc21` (single isomer, unassigned) [Example 54], for which the figures for the Ki in test [2] and in test [1] were 7.5 nM and 6 nM, respectively.

For `CC(c1ccc(C(C)(C)C)cc1)n1nc(CO)c2c(=O)[nH]c(N(C)C)nc21` (single isomer, unassigned) [Example 67, (S)- or (R)-1-(1-(4-tert-Butylphenyl)ethyl)-6-(dimethylamino)-3-(hydroxymethyl)-1H-pyrazolo[3,4-d]pyrimidin-4(5H)-one], the Ki in test [2] stood at 0.32 nM.

Consider `CC(C)C(c1ccc(CC(F)(F)F)cc1)n1nc(CO)c2c(=O)[nH]c(N(C)C)nc21` (single isomer, unassigned) [Example 88, (R)- or (S)-6-(Dimethylamino)-3-(hydroxymethyl)-1-(2-methyl-1-(4-(2,2,2-trifluoroethyl)phenyl)propyl)-1H-pyrazolo[3,4-d]pyrimidin-4(5H)-one], for which the Ki in test [2] was 0.31 nM; in test [1] it was 0.32 nM.

`CC(C)C(c1ccc(CC(F)(F)F)cc1)n1nc(CO)c2c(=O)[nH]c(N(C)C)nc21` (single isomer, unassigned) [Example 89, (S)- or (R)-6-(Dimethylamino)-3-(hydroxymethyl)-1-(2-methyl-1-(4-(2,2,2-trifluoroethyl)phenyl)propyl)-1H-pyrazolo[3,4-d]pyrimidin-4(5H)-one] had a Ki in test [2] of 0.3 nM.

In test [1], `CCC(c1ccc(CC(F)(F)F)c(F)c1)n1nc(CO)c2c(=O)[nH]c(N(C)C)nc21` (single isomer, unassigned) [Example 96, (R)- or (S)-6-(Dimethylamino)-1-(1-(3-fluoro-4-(2,2,2-trifluoroethyl)phenyl)propyl)-3-(hydroxymethyl)-1H-pyrazolo[3,4-d]pyrimidin-4(5H)-one] gave a Ki of 0.32 nM. This lies in the sub-nanomolar range.

The compound `CCC(c1ccc(CC(F)(F)F)cc1)n1nc(CO)c2c(=O)[nH]c(N(C)C)nc21` (single isomer, unassigned) [Example 99, (S)- or (R)-6-(Dimethyiamino)-3-(hydroxymethyl)-1-(1-(4-(2,2,2-trifluoroethyl)phenyl)propyl)-1H-pyrazolo[3,4-d]pyrimidin-4(5H)-one] registered a Ki in test [2] of 0.38 nM.

With `CC(C)C(c1ccc(C(F)F)c(F)c1)n1nc(CO)c2c(=O)[nH]c(N(C)C)nc21` (single isomer, unassigned) [Example 115, (R)- or (S)-1-(1-(4-(Difluoromethyl)-3-fluorophenyl)-2-methylpropyl)-6-(dimethylamino)-3-(hydroxymethyl)-1H-pyrazolo[3,4-d]pyrimidin-4(5H)-one], the Ki in test [2] worked out at 0.32 nM.

Compound `CCC(c1ccc(C(F)F)c(F)c1)n1nc(CO)c2c(=O)[nH]c(N(C)C)nc21` (single isomer, unassigned) [Example 147] displayed a Ki in test [1] of 0.52 nM.

In test [2], `CC(c1ccc(CC(F)(F)F)cc1)n1nc(CF)c2c(=O)[nH]c(N(C)C)nc21` (single isomer, unassigned) [Example 175, (S)- or (R)-6-(Dimethylamino)-3-(fluoromethyl)-1-(1-(4-(2,2,2-trifluoroethyl)phenyl)ethyl)-1H-pyrazolo[3,4-d]pyrimidin-4(5H)-one] displayed a Ki of 0.32 nM. That is a sub-nanomolar value.

As to `CC(C)C(c1ccc(C(F)(F)F)c(F)c1)n1nc(CF)c2c(=O)[nH]c(N(C)C)nc21` (single isomer, unassigned) [Example 220, (R)- or (S)-6-(Dimethylamino)-1-(1-(3-fluoro-4-(trifluoromethyl)phenyl)-2-methylpropyl)-3-(fluoromethyl)-1H-pyrazolo[3,4-d]pyrimidin-4(5H)-one], the Ki in test [1] was determined as 0.32 nM.

Consider `O=c1[nH]c(O)nc2c1c(CC(F)(F)F)nn2C(c1ccc(C(F)(F)F)cc1)C1CC1` (single isomer, unassigned) [Example 227], for which the Ki in test [1] was found to be 8.3 nM.
